BindingDB's records for 23618710 (National Institute On Drug Abuse and The National Institute …, 2013)
pKi: −log10 of the molar value.

By UniProt entry, the sequences of proteins in these tests, tags left out.
UniProt P41143, whole entry, looked up: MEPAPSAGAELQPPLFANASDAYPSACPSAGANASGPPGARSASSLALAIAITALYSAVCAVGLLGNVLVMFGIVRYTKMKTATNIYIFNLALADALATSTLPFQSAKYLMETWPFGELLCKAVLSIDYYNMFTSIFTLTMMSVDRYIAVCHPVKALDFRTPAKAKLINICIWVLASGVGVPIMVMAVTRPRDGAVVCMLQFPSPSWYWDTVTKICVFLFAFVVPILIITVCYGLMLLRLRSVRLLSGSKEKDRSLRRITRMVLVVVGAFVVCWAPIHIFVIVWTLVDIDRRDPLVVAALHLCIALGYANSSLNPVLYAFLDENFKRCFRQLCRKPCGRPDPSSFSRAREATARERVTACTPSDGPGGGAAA

Target: Delta-type opioid receptor (Homo sapiens, UniProt P41143)
Test: Displacement of [3H]DADLE from human recombinant delta opioid receptor expressed in CHO cell membranes after 2 hrs by liquid scintillation counting analysis

C=CCN1CC[C@@]2(CCc3ccccc3)c3cc(O)ccc3O[C@H]2C1
pKi: 7.26
